Results: patent US12398109B2, “2-amino-2-(1,2,3-triazole-4-yl)propane-1,3-diol derivative of novel compound for directly inhibiting ASM activity, and use thereof” (KYUNGPOOK NATIONAL UNIVERSITY INDUSTRY-ACADEMIC COOPERATION …, priority 2018, dated 2025)

Tests used:
APP/PS1 mouse = experiment: Open field test and dark & light test in APP/PS1 mouse; type: in vivo; settings: SCNPA 100 mg/kg/day, FTY720 1 mg/kg/day
Procedure: In order to confirm a potential effect on learning and memory, a Morris Water Maze (MWM) test was performed. In the MWM, the mouse learned a task 4 times a day for 10 days, a platform was removed on day 11, and aprobe trial was performed. To evaluate activity and anxiety, an open field test and a dark and light test were performed. In the open field test, the mouse was placed in a quadrangular box for 10 minutes and then overall activity and a time spent to move around a wall side and a center were measured. In the dark and light test, the mouse was placed in a quadrangular box consisting of a dark box and a light box for 10 minutes, and a time staying in each box, the number of reciprocating the boxes, and a time to first enter into a light box were measured.
In addition, an open field test and a dark & light test were conducted to confirm an effect of the ASM inhibitory compounds on activity and anxiety.

astrocytes (GFAP) = experiment: Astrocytes (GFAP) in brain of APP/PS1 mouse; settings: in vivo

CCCCCCCCCn1cc(C(N)(CO)CO)nn1 [SCNPA201, 2-amino-2-(1-nonanyl-1H-1,2,3-triazol-4-yl)propane-1,3-diol]
activity and anxiety (APP/PS1 mouse): improved | activity of astrocytes (astrocytes (GFAP)): significantly decreased
